# EPAC2 agonist = EPAC2 (human) agonism | EPAC2 activation, biochemical qHTS; response scale: 100% = 6.5 mM cAMP response | Potency, µM (doses to about 154 µM), inactives show top-dose activation, hits mostly activators | actives 0.079% (n = 360,000) | AID 720711; further: nearly all actives have a fitted effect of over 50% in size
#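 Guanine nucleotide exchange by EPAC2 is measured as reduced fluorescence of BODIPY-GDP once it is released from 250 nM Rap1B. Plates are read kinetically for 30 min at room temperature; results are scaled to 6.5 mM cAMP.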
# Rango complex inh = Rango-importin beta binding inhibition. Q14974. Rango CFP/YFP FRET sensor + importin beta, 45 min. Potency, µM (titrated, usually from 92.2 µM), for the others: at the highest dose inhibition of complex formation. actives 0.031% (n = 340,000). AID 540263; calls by dose curve;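 further: 0% = DMSO wells and 100% = buffer wells lacking importin beta; nearly all actives have a fitted effect of over 15% in size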
#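 FRET biosensor (snurportin 1 IBB flanked by EYFP and cerulean), 50 nM, with compound 5 min, then 0.125 microM importin beta in PBS, 1 mM DTT, 0.02% Tween-20, 0.1% BSA. CFP/YFP ratio read after 45 min at room temperature; pre-read flags interference.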
# Rango release inh = prevents RanGTP from dissociating the Rango-importin beta complex; Biochemical FRET Rango-importin beta, RanGTP-induced dissociation; Potency, µM (doses to about 46.1 µM), inactives show top-dose activity change, negative = inhibition; actives 0.071% (n = 340,000); AID 540253; calls by dose curve; further: % of control where 0% means no effect; nearly all actives have a fitted effect of over 45% in size
#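 Rango (0.1 uM)–importin beta (0.25 uM) complex; RanGTP-RCC1 trigger; 45 min RT; CFP/YFP FRET read.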
# EPAC2 antagonist = EPAC2 (human) antagonism | Q8WZA2 | EPAC2 GEF exchange of Rap1B-BODIPY-GDP, fluorescence | Potency, µM (top dose mostly 114 µM), for inactives: at the top dose activity, negative = inhibition, most hits filed as inhibitors | actives 0.18% (n = 360,000) | AID 720708; further: on the % scale 0 is the no-effect control and ±100 the full control effect; nearly all actives have a fitted effect of over 45% in size
# EPAC1 ag = EPAC1 (human) agonism; O95398; EPAC1 agonist qHTS, biochemical assay; response scale: 100% = response to 6.5 mM cAMP; Potency, µM (highest dose often 154 µM), inactives show at the highest dose activation, hits mostly activators; actives 0.073% (n = 360,000); AID 720707; further: nearly all actives have a fitted effect of over 60% in size
#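 Compounds were pinned as a concentration titration into mixtures of EPAC1 (100 nM), BODIPY-GDP-loaded Rap1B (250 nM) and GDP (50 uM). After 5 min at room temperature, fluorescence was followed for 30 min; activity was scaled to 6.5 mM cAMP.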
# EPAC1 antag = EPAC1 (human) antagonism; O95398; EPAC1 GEF assay, Rap1b-BODIPY-GDP exchange fluorescence; Potency, µM (highest dose often 115 µM), for inactives: top-dose activity change, negative = inhibition, actives largely listed as inhibitors; actives 0.14% (n = 360,000); AID 720709;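 further: plate controls were vehicle for no effect and positive control for full effect; nearly all actives have a fitted effect of over 50% in size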
# The depositor's hits bear a star; i = inactive; ? = inconclusive; · = no result given. The list is not random: actives were taken first. Their share in the collection is about 0.43%. Unless noted, the call rests on the fitted dose curve; in most records, active means well fitted curve in the direction sought with a large enough effect; inconclusive means small, poorly fitted or top-dose-only effect, or another doubt; inactive means no such curve, though single readings can be large; an effect the other way counts as inactive or inconclusive. Potency means the concentration at half of the fitted maximal effect.
SMILES,EPAC2 agonist,Rango complex inh,Rango release inh,EPAC2 antagonist,EPAC1 ag,EPAC1 antag
COc1ccc(C2C(C#N)=C(N)OC3=C2C(=O)CC(C)(C)C3)c([N+](=O)[O-])c1OC (stereo not given),3%,?,23µM*,-7%,1%,-1%
CN1/C(=C\C=C2/C(=O)Oc3ccccc3C2=O)C(C)(C)c2ccccc21,79µM*,?,?,i,79µM*,i
CN1/C(=C\C=C2/SC(=S)NC2=O)C(C)(C)c2ccccc21,63µM*,23µM*,?,98%,63µM*,49%
CN1C(=CC=C2C=C(I)C(=O)C(I)=C2)C(C)(C)c2ccccc21,1%,1%,-7%,21%,10%,-9%
CCNS(=O)(=O)c1ccc(CCC(=O)N2CCc3ccccc3C2)cc1,9%,?,-7%,2%,5%,-5%
CC1CN(S(=O)(=O)c2cccc(C(=O)NCCc3ccc(S(N)(=O)=O)cc3)c2)CC(C)O1 (stereo not given),5%,?,12%,13%,-2%,-8%
CSc1cccc(N2CC(C(=O)Nc3cccc(S(=O)(=O)N4CCCC4)c3)CC2=O)c1 (stereo not given),9%,0%,-13%,5%,50µM*,-5%
O=C(CSc1cc(Cl)ccc1Cl)NCCN1C(=O)CSC1=O,11%,1%,-7%,0%,4%,-3%
COc1ccccc1C1CC(c2ccco2)=NN1c1ccccc1 (stereo not given),18%,?,16µM*,-4%,16%,-12%
Fc1ccc(C2=NN(c3ccccc3)C(c3ccco3)C2)cc1 (stereo not given),10%,?,-19%,-20%,-10%,7%
COC1=CC(=O)c2c(ccc3ncnc(N)c23)C1=O,-1%,0%,-7%,40µM*,-6%,40µM*
COc1ccc(N(C(=O)Cn2nnc3ccccc32)C(C(=O)NCc2ccco2)c2ccncc2)cc1 (stereo not given),1%,2%,-2%,8%,4%,-21%
Cc1nc(N2C(=O)C(=O)/C(=C(/O)c3ccccc3)C2c2ccco2)sc1C (stereo not given),4µM*,?,-15%,14%,-3%,9%
COC(=O)c1sc(N2C(=O)C(=O)/C(=C(/O)c3ccccc3)C2c2ccco2)nc1C (stereo not given),-4%,?,-3%,2%,-4%,-3%
CCOc1cccc(C(=O)N2CCCCC2c2cccnc2)c1 (stereo not given),2%,0%,-9%,-1%,0%,0%
O=C(C1=NN(c2ccccc2)C2C(=O)N(c3cccc(Cl)c3)C(=O)C12)c1ccccc1 (stereo not given),10%,?,?,32%,-82%,50µM*
COc1ccccc1N1C(=O)C2C(C(=O)c3ccccc3)=NN(c3ccc(Br)cc3)C2C1=O (stereo not given),-2%,?,?,50µM*,-38%,35µM*
Cc1ccc(Oc2ccccc2NC(=O)CSCC(=O)Nc2cc(C)on2)cc1,4%,-2%,15%,-7%,112µM*,-13%
O=C(N/N=C/c1ccc(OC(=O)c2ccco2)cc1)c1ccc[n+]([O-])c1,6%,0%,8%,-2%,9%,-12%
O=C(Cc1cccs1)Nc1cccc(-c2nc3cc4ccccc4cc3[nH]2)c1,18%,6%,-1%,-2%,19%,1%

# Just EPAC1 antag (two entries from above):
SMILES	EPAC1 antag
Fc1ccc(C2=NN(c3ccccc3)C(c3ccco3)C2)cc1 (stereo not given)	7%
COC1=CC(=O)c2c(ccc3ncnc(N)c23)C1=O	40µM*

# A different layout for two compounds above:
# Values run as follows: EPAC2 agonist, Rango complex inh, Rango release inh, EPAC2 antagonist, EPAC1 ag, EPAC1 antag
> CN1/C(=C\C=C2/SC(=S)NC2=O)C(C)(C)c2ccccc21
    63µM*, 23µM*, ?, 98%, 63µM*, 49%
> CN1C(=CC=C2C=C(I)C(=O)C(I)=C2)C(C)(C)c2ccccc21
    1%, 1%, -7%, 21%, 10%, -9%

# Later entries
SMILES,EPAC2 agonist,Rango complex inh,Rango release inh,EPAC2 antagonist,EPAC1 ag,EPAC1 antag
Cc1ccc(-n2c(O)c(C=Nc3cc(C)on3)c3ccccc3c2=O)c(C)c1,3%,?,9.2µM*,-5%,6%,-5%
Cn1c(=O)c2c(SCC(=O)NCc3ccco3)nc(-c3ccccc3Cl)nc2n(C)c1=O,3%,-2%,13%,4%,3%,6%
CCCn1c(=O)n(C)c(=O)c2c(SCC(=O)NCc3ccco3)nc(C3CC3)nc21,10µM*,6%,22%,-16%,-7%,-10%
C#CCOCCOCCOCCNc1nc(N2CCN(C(=O)CCCCCCCCCCNC(=O)[C@H]([C@@H](C)CC)n3cc(CCCCCN)nn3)CC2)nc(N2CCN(C(=O)CCCCCCCCCCNC(=O)[C@H](CCCCN)n3cc(CCCC(=O)O)nn3)CC2)n1,-3%,5%,-4%,26%,5%,1%
C#CCOCCOCCOCCNc1nc(N2CCN(C(=O)CCCCCCCCCCNC(=O)[C@H](CO)n3cc(CCCSC)nn3)CC2)nc(N2CCN(C(=O)CCCCCCCCCCNC(=O)[C@H](CCCN=C(N)N)n3cc(C[C@@H](C)CC)nn3)CC2)n1,-19%,6%,-22%,?,-30%,56µM*
C#CCOCCOCCOCCNc1nc(N2CCN(C(=O)[C@H](CCCN=C(N)N)n3cc(C(N)[C@@H](C)CC)nn3)CC2)nc(N2CCN(C(=O)[C@H](CCCCN)n3cc([C@@H](N)[C@H](C)CC)nn3)CC2)n1 (stereo not given in full),5%,58µM*,14%,-5%,7%,?
C#CCOCCOCCOCCNc1nc(N2CCN(C(=O)CCCCCCCCCCNC(=O)[C@H]([C@@H](C)CC)n3cc(CCCCN=C(N)N)nn3)CC2)nc(N2CCN(C(=O)CCCCCCCCCCNC(=O)[C@H](CCCCN)n3cc(C)nn3)CC2)n1,28%,65µM*,0%,-26%,0%,?
COc1ccc(CC(=O)NCC2(c3ccc(OC)c(OC)c3)CCCC2)cc1,-1%,0%,21%,-1%,-3%,7%
O=C(CSc1n[nH]c(-c2cccnc2)n1)OC1CCCCC1,-4%,-5%,-9%,-8%,-2%,8%
CN(C)CCNS(=O)(=O)c1ccc2c3c(cccc13)C(=O)N2,4%,?,?,-4%,9%,-20%
O=C1Nc2ccc(S(=O)(=O)NCc3ccccn3)c3cccc1c23,10%,?,7.3µM*,-6%,-7%,-14%
O=C(CCNC(=O)N1CC(=O)Nc2ccccc21)NCCc1ccc(Cl)cc1,6%,·,·,2%,-6%,8%
COc1cccc(C(C(=O)NC2CCCCC2)N(C(=O)c2ccco2)c2ccccc2OC)c1 (stereo not given),6%,4%,-15%,-14%,-5%,-23%
NC(=O)C1CCN(CC(=O)Nc2cccnc2Cl)CC1,10%,-1%,34%,2%,2%,-15%
